In the library only some 1.7% were active in any assay of this set; here they are far more common.
CDK5 inh: inhibitors of human CDK5/p35 kinase. Q00535+Q15078. Recombinant CDK5/p35, ADP-Glo luminescence, 60 min. inhibition, % at 10 µM. actives 0.01% (n = 330,000). AID 488839;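 active = highest replicate inhibition of at least 50% and at least 75% of replicates reaching 50%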;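 also: plate controls were DMSO neutral control for no effect and GW8510 at 10 µM for full effect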
CAL PDZ FP-1: blocks peptide binding to human CAL PDZ domain | AID 504414 | inhibition, % at 20 µM | Q9HD26 | actives 0.02% (n = 330,000) | purified CAL PDZ, TMR-peptide fluorescence polarization, 1 h;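 active = highest replicate inhibition of at least 40%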;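 also: plate controls were DMSO neutral control wells for no effect and unlabeled competitor peptide control wells for full effect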
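Material: tagged CAL PDZ domain; buffer or medium: 25 mM sodium phosphate pH 7.4, 150 mM NaCl, TCEP, IgG, Thesit; compound dosing: single point, 20 µM; schedule: 1 h incubation at room temperature before polarization reading; measured by: FP readout, S and P plane fluorescence; read-out basis: percent inhibition from loss of millipolarization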
dFosB activator: mouse delta FosB homodimer activation; activation, % at 25 µM; P13346; actives 0.99% (n = 340,000); AID 493131; purified delta FosB, TAMRA-CDK5 oligo fluorescence polarization; percent of positive-control signal above neutral wells;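 active = mean activation above about 17%, with every replicate also reaching it, limit read from the data, passing the limit was not always enough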
Dyrk1A ADPGlo: blocks rat Dyrk1A kinase activity; ADP-Glo luminescence, NFATc1 peptide; inhibition, % at 12.5 µM; actives 0.43% (n = 310,000); AID 504441; in the data active = inhibition above about 50%;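 also: plate controls were vehicle with enzyme for no effect and no enzyme for full effect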
UUG fidelity: alters start codon recognition fidelity in yeast | S. cerevisiae UUG-firefly luciferase reporter, luminescence/redox ratio | activity score, % at 18.7 µM | 350,000 compounds, 0.13% hits | AID 602363;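 active = replicate mean at a twofold rise or more, about +100% in these data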;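 note: firefly luciferase made from a UUG start codon reports start codon fidelity; reporter light over untreated wells divided by growth signal over untreated wells; some hits fall short of that in this replicate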
CAL PDZ FP-2: inhibitors of human CAL PDZ peptide binding; Q9HD26; purified CAL PDZ, TMR-peptide fluorescence polarization, 1 h; inhibition, % at 24.9 µM; actives 0.92% (n = 300,000);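 active = mean inhibition of at least 30% with at least half of replicates also reaching 30%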;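 also: 0% = DMSO neutral control and 100% = excess unlabeled competitor peptide PRC23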
* marks the source's active call; other numbers are inactive results; / = not tested or not shown.

mol	CDK5 inh	CAL PDZ FP-1	dFosB activator	Dyrk1A ADPGlo	UUG fidelity	CAL PDZ FP-2
CCOc1cc(/C=N/NC(=O)c2cc(-c3cccnc3)nc3ccccc23)ccc1O	0	-1	-7	/	-9	-2
CCOc1ccccc1-c1cc(C(=O)N/N=C/c2ccc(O)c(OC)c2)c2ccccc2n1	1	-1	25*	0	/	-26
Cc1cccc(/C=N/NC(=O)c2cc(C)nc3ccccc23)n1	0	-1	-9	1	-3	151*
COc1cc(/C=N/NC(=O)c2ccoc2C)ccc1O	-1	-1	3	2	/	-29
CCOc1ccc(/C=N/NC(=O)c2ccoc2C)cc1OC	6	-1	-8	3	10	182*
Cc1cccc(/C=N/NC(=O)c2cc(C3CC3)nc3ccccc23)n1	2	-2	-6	10	-11	0
C[C@H]1CN([C@@H](C)CO)C(=O)c2cc(NS(=O)(=O)c3ccc(F)cc3)ccc2O[C@@H]1CN(C)C(=O)Nc1ccc2c(c1)OCO2	/	/	/	/	4	/
CCS(=O)(=O)Nc1ccc2c(c1)C(=O)N(C)[C@H]1CC[C@@H](CC(=O)N3CCOCC3)O[C@@H]1CO2	/	/	/	/	-2	/
O=C(Nc1cccnc1)c1cc(-c2ccc(Cl)c(Cl)c2)on1	-3	-1	76*	-6	-10	-4
CN(C)c1c([N+](=O)[O-])cc(N2C(=O)C=CC2=O)cc1[N+](=O)[O-]	6	-1	-15	/	-17	37*
C[C@H](CO)N1C[C@H](C)[C@H](CN(C)C(=O)Nc2ccccc2)Oc2c(NC(=O)Nc3ccc(F)cc3)cccc2C1=O	/	/	/	/	12	/
O=C1CCCN1CC(O)CS(=O)(=O)Cc1ccccc1Cl (configuration not stated)	1	0	7	-4	-25	10
O=C1CCCN1CC(O)CS(=O)(=O)Cc1ccccc1 (configuration not stated)	1	/	7	6	-10	46*
COc1ccc2cc3cc(C(=O)NCCc4ccc(OC)c(OC)c4)oc3nc2c1	0	-4	-8	9	-9	0
COc1ccc2cc3cc(C(=O)NCCN4CCc5ccccc5C4)oc3nc2c1	0	-5	-13	77*	27	4
O=C(COC(=O)c1cccc(-n2cnnn2)c1)Nc1c(Cl)cccc1C(F)(F)F	0	-2	10	-2	-1	62*
O=C(NNC(=O)c1cccc(C(F)(F)F)c1)c1ccc(-n2cnnn2)cc1	-1	0	2	/	0	92*
CC(C)(C)c1ccc(C(=O)NNC(=O)c2cccc(-n3cnnn3)c2)cc1	1	-1	-9	1	/	/
O=C(Nc1cccc(-n2cnnn2)c1)c1ccc(OC(F)(F)F)cc1	0	-2	-6	4	-8	98*
O=C(COC(=O)C1=COCCO1)Nc1ccc(Br)cc1Br	2	0	-2	0	-22	43*
Cc1ccccc1NC(=O)COC(=O)C1=COCCO1	0	2	3	-2	-16	-3
CN(C)C(=O)CN1C(=O)C2CC=C(Cl)CC2C1=O (configuration not stated)	0	0	-6	1	-7	32*
CC(C)OC(=O)/C(C#N)=C/c1ccc(-c2ccc(SC(F)F)cc2)o1	0	-1	-13	-3	/	3
COC(=O)/C(C#N)=C/c1ccc(-c2ccc(S(N)(=O)=O)cc2)o1	3	-2	0	-3	-13	36*
COc1cccc(CN(CC2CCCO2)S(=O)(=O)c2ccc(-n3cnnn3)c(OC)c2)c1 (configuration not stated)	0	-2	-3	9	/	1

Entries from the list above that have a cyano group:
mol	CDK5 inh	CAL PDZ FP-1	dFosB activator	Dyrk1A ADPGlo	UUG fidelity	CAL PDZ FP-2
CC(C)OC(=O)/C(C#N)=C/c1ccc(-c2ccc(SC(F)F)cc2)o1	0	-1	-13	-3	/	3
COC(=O)/C(C#N)=C/c1ccc(-c2ccc(S(N)(=O)=O)cc2)o1	3	-2	0	-3	-13	36*

Returning to the listing with the three entries that preceded the break.
mol	CDK5 inh	CAL PDZ FP-1	dFosB activator	Dyrk1A ADPGlo	UUG fidelity	CAL PDZ FP-2
CC(C)OC(=O)/C(C#N)=C/c1ccc(-c2ccc(SC(F)F)cc2)o1	0	-1	-13	-3	/	3
COC(=O)/C(C#N)=C/c1ccc(-c2ccc(S(N)(=O)=O)cc2)o1	3	-2	0	-3	-13	36*
COc1cccc(CN(CC2CCCO2)S(=O)(=O)c2ccc(-n3cnnn3)c(OC)c2)c1 (configuration not stated)	0	-2	-3	9	/	1
COc1cccc(CN(c2ccc3c(c2)CCC3)S(=O)(=O)c2ccc(-n3cnnn3)c(OC)c2)c1	/	-1	-3	8	-2	42*
C[C@H](CO)N1C[C@H](C)[C@H](CN(C)C(=O)Nc2ccccc2)Oc2ncc(C3=CCCCC3)cc2C1=O	/	/	/	/	11	/
CCCc1cc(-c2[nH]ncc2-c2ccc(C(=O)OCC)o2)c(O)cc1O	34	-3	-8	17	-19	0
CCCc1cc(-c2[nH]ncc2-c2ccc3c(c2)OCCCO3)c(O)cc1O	-5	-1	-14	58*	-19	-1
CC1CCC(NC(=O)CCN2C(=O)C3CC=CCC3C2=O)CC1 (configuration not stated)	-1	0	6	-1	-15	67*
O=C(CCN1C(=O)C2CC=CCC2C1=O)NC1CCCCC1 (configuration not stated)	1	-1	-3	-2	-16	2
CNC(=O)c1ccc(-c2ccc(OC)cc2)s1	0	-1	3	21	-26	-4
COc1ccc(-c2cc(C(=O)O)sc2C)cc1	0	-2	0	/	/	44*
O=C(O)c1cn[nH]c1-c1cccc([N+](=O)[O-])c1	-1	-5	1	10	/	61*
O=Cc1cn[nH]c1-c1cccc([N+](=O)[O-])c1	-1	-1	-1	7	/	-1
N/C(=N\OC(=O)Cc1ccccc1[N+](=O)[O-])c1cccnc1	0	/	0	0	/	77*
COc1ccc(-c2nnc(SCC(=O)O)n2Cc2ccccc2)cc1	0	0	0	-4	-29	57*
CCOc1ccc(-c2nnc(SCC(=O)O)n2Cc2ccccc2)cc1	-3	/	-7	2	0	-4
CC(C)C(C)(C#N)NC(=O)CSc1nnc(-c2ccncc2)n1Cc1ccccc1 (configuration not stated)	1	-1	-6	-5	-18	35*
Cc1ccc(S(=O)(=O)Nc2ccc3c(c2)C(=O)N([C@H](C)CO)C[C@H](C)[C@@H](CN(C)Cc2ccc(Cl)c(Cl)c2)OCCCC[C@H](C)O3)cc1	/	/	/	/	-3	/
C[C@@H]1CCCCO[C@H](CN(C)C(=O)c2ccncc2)[C@H](C)CN([C@@H](C)CO)C(=O)c2cc(NC(=O)C3CCCCC3)ccc2O1	/	/	/	/	-2	/
Cc1ccc(N2CC(=O)Nc3c(sc4nc(C)cc(C)c34)C2=O)cc1	-5	0	-5	-11	4	/
Cc1cc(C)c2c3c(sc2n1)C(=O)N(c1ccccc1C)CC(=O)N3	0	-1	1	1	/	74*
CCN(CC)CCn1c(=S)[nH]c2ccc(Br)cc2c1=O	0	4	3	7	/	87*
CCN(CC)CCn1c(=S)[nH]c2ccccc2c1=O	-1	-2	0	-6	-15	-4
O=[N+]([O-])c1ccc(N=Nc2c(O)[nH]c3ccc(F)cc23)cc1	2	/	2	2	1	42*
O=[N+]([O-])c1ccc2[nH]c(O)c(N=Nc3ccc(F)cc3)c2c1	0	-1	-1	6	-11	-9
